These results are taken from paper PMC11272584 (Nature Metabolism, 2024).

Positions count from the first letter of the chain named.

For one assay, the target named is T1, GIPR H166Y (Homo sapiens, UniProt P48546, H166Y).
T1 sequence (P48546 22-466 H166Y): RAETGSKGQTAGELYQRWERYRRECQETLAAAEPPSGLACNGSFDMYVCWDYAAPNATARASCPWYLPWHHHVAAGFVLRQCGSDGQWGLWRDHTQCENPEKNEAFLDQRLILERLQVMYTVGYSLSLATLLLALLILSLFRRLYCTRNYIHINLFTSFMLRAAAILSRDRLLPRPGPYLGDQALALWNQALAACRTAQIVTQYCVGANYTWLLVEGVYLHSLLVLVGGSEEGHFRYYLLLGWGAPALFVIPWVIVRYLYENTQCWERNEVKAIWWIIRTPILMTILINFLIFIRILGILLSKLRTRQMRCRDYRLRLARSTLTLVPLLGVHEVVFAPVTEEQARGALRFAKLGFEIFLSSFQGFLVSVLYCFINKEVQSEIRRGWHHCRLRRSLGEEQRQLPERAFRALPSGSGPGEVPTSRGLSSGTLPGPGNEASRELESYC
The conditions noted are these: HEK293A, 1 µM GIP minus vehicle, n = 4, P = 0.0248.

Another assay addresses T2, GIPR R190Q (Homo sapiens, UniProt P48546, R190Q).
T2 sequence (P48546 22-466 R190Q): T1 sequence (P48546 22-466 H166Y) with Y145H, R169Q
The conditions noted are these: HEK293A, 1 µM GIP minus vehicle, n = 4, P = 0.4579.

In the next assay the target is T3, GIPR L261H (Homo sapiens, UniProt P48546, L261H).
T3 construct: host or cells: HEK293
The experiment in a line: cAMP accumulation. Type of assay: cell-based. Background: Cyclic AMP is a second messenger, typically raised through Gs and lowered through Gi signalling.

The next assay concerns the target T4, GIPR E418K (Homo sapiens, UniProt P48546, E418K).
T4 sequence (P48546 22-466 E418K): T1 sequence (P48546 22-466 H166Y) with Y145H, E397K
The conditions noted are these: HEK293A, 1 µM GIP minus vehicle, n = 4, P = 0.0142.

For another assay, the target named is T5, GIPR E354Q (Homo sapiens, UniProt P48546, E354Q).
T5 sequence (P48546 22-466 E354Q): T1 sequence (P48546 22-466 H166Y) with Y145H, E333Q
Nature of the assay: cAMP accumulation. Type of assay: cell-based. Also noted: host or cells: HEK293.

In a further assay the target is T6, GIPR I221M (Homo sapiens, UniProt P48546, I221M).
T6 sequence (P48546 22-466 I221M): T1 sequence (P48546 22-466 H166Y) with Y145H, I200M
The experiment in a line: cAMP accumulation. Type of assay: cell-based. Details: host or cells: HEK293.

For “glucose-dependent insulinotropic polypeptide [GIP]”, the “Mean of ΔBRET” value at GIPR H166Y is 0.0316; on GIPR R190Q, 0.0153; at GIPR E418K, 0.0797. Besides, the “cAMP (Emax)” value was 113 % of WT GIPR activity at GIPR L261H (HEK293, GIP(1–42) 1 pM–100 nM, 30 min 37 °C, mean of n = 4); 116 % of WT GIPR activity on GIPR E354Q (HEK293, GIP(1–42) 1 pM–100 nM, 30 min 37 °C, mean of n = 3); 112 % of WT GIPR activity on GIPR I221M (HEK293, GIP(1–42) 1 pM–100 nM, 30 min 37 °C, mean of n = 5). In addition, the “logEC50 (cAMP)” value at GIPR L261H (HEK293, Hill slope 1.0, mean of n = 4) is reported as -9.7; on GIPR E354Q (HEK293, Hill slope 1.0, mean of n = 3), -11.2; on GIPR I221M (HEK293, Hill slope 1.0, mean of n = 5) it was -10.5.
